The target in this assay is T1, cyGARP-proTGFβ1 (cynomolgus (printed 'cy'); Cyno).
T1 construct: Only the label 'cyGARP-proTGFβ1' is printed; also called cynomolgus GARP-proTGFβ1 complex
Briefly: species cross-reactivity screen; legend: +++ KD <1 nM.

Some results are limits rather than exact numbers.

B1: Ab2 (antibody, V domains shown)
VH: EVQLVQSGAEMKKPGESLKISCKGSGYNFASDWIGWVRQTPGKGLEWMGVIYPGDSDTRYSASFQGQVTISADKSINTAYLQWSSLKASDTAMYYCASAAGIAAAGHVTAFDIWGQGTMVTVSS
VL: not shown
The molecule B1 came in with a KD below 1 nM.

B2: Ab1 (antibody, human IgG4 S228P, lambda, V domains shown)
VH: EVQLVESGGGLVQPGRSLRLSCAASGFTFSSYGMHWVRQAPGKGLEWVAVISYDGSNKYYADSVKGRFTISRDNSKNTLYLQMNSLRAEDTAVYYCARDIRPYGDYSAAFDIWGQGTLVTVSS
VL: NFMLTQPHSVSESPGKTVTISCTGSSGSIASNYVQWYQQRPGSAPSIVIFEDNQRPSGAPDRFSGSIDSSSNSASLTISGLKTEDEADYYCQSYDSSNHGGVFGGGTQLTVLG
notes: mIgG1 versions are mentioned for in vivo work
Take B2: the KD is below 1 nM.

Values taken from patent US20240016928A1 (SCHOLAR ROCK, published 2024).
